Target: Bcl-2 (Homo sapiens, UniProt P10415)
Assay: Ki determination for Bcl-2 (BCL-2 family binding spectrum)
Conditions: TABLE 8
Excerpt: To assess the binding and affinity of compounds that antagonize the interaction between a peptide and an acceptor protein, a fluorescence polarization assay (FPA) utilizing a fluoresceinated peptidomimetic macrocycle derived from a peptidomimetic precursor sequence is used, for example. The FPA technique measures the molecular orientation and mobility using polarized light and fluorescent tracer. […] A compound that antagonizes the interaction between the fluoresceinated peptidomimetic macrocycle and an acceptor protein will be detected in a competitive binding FPA experiment.
For example, putative antagonist compounds (1 nM to 1 mM) and a fluoresceinated peptidomimetic macrocycle (25 nM) are incubated with the acceptor protein (50 nM) in binding buffer (140 mM NaCl, 50 mM Tris-HCL, pH 7.4) for 30 minutes at room temperature. Antagonist binding activity is measured, for example, by fluorescence polarization on a luminescence spectrophotometer (e.g. Perkin-Elmer LS50B). Kd values may be determined by nonlinear regression analysis using, for example, Graphpad Prism software (GraphPad Software, Inc., San Diego, Calif.).

Sequences of proteins named here, by UniProt entry; tags and fusion partners are left off.
UniProt P10415, whole entry, species assumed: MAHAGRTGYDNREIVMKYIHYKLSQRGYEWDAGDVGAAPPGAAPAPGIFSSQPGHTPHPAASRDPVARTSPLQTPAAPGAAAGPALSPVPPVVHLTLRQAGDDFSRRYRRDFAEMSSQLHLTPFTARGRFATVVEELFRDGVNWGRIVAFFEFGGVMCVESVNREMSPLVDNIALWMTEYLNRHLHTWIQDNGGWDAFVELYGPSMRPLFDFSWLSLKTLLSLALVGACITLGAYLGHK

- Ki: 0.9 nM
SMILES: CC1(C)CCC(c2ccc(Cl)cc2)=C(CN2CCN(c3ccc(C(=O)NS(=O)(=O)c4ccc(N[C@H](CCN5CCOCC5)CSc5ccccc5)c(S(=O)(=O)C(F)(F)F)c4)cc3)CC2)C1 [ABT-263, navitoclax, reference compound]
